Data as given in article PMC7810150 (Journal of medicinal chemistry, 2020).
“And” between values parts separate entries of the source, which are not always exact repeats. Equal values may be shown once. Read-outs that look alike come from different tables or passages of the source.

Tests used:
[1] = In vivo tolerance and dose-limiting toxicities; parameters: species or system mice; details: for maximum tolerated (single) dose: single intravenous bolus dose, mice
[2] = mice
[3] = IV, 1 mg/kg; estimated from literature data; cited from earlier work
[4] = cited from earlier work

| Substance | tolerance of q3dx8 schedule ([1]; 25 mg/kg, eight doses at 3-day intervals) | tolerance of protracted dosing schedules ([1]; qMWFx2 14 mg/kg, q4dx6 17 mg/kg, q7dx3 25 mg/kg) | alanine aminotransferase (ALT) ([1]; single dose, doses of 35 mg/kg and greater, normalized by day 6) | maximum tolerated (single) dose [1] | white blood cells, lymphocytes and platelets ([1]; within 2 days after treatment at doses of 35 mg/kg and greater) | increase in plasma (systemic) exposure relative to MTM [2] | clearance (CL) ([2]; IV, 5 mg/kg) | dose-normalized systemic exposure (AUC/D) ([2]; IV, 5 mg/kg) | volume of distribution (Vd) ([2]; IV, 5 mg/kg) | clearance (CL) [3] | dose-normalized systemic exposure (AUC/D) [3] | volume of distribution (Vd) [3] | pKa [4] |
| --- | --- | --- | --- | --- | --- | --- | --- | --- | --- | --- | --- | --- | --- |
| (E)-3-(2′-{2-[(Methyl l-Phenylalanyl-l-tryptophanate)amino]-2-oxoethoxy}imino) MTM [MTMox32E] | no weight loss or petechia noted | no weight loss, hematologic toxicity, or hepatic toxicity | sharp increase on day 2 | approximately 25 mg/kg | decreased significantly | 11 fold and > 10 fold | 1.5 mL/min/kg | 13596 kg·ng·h/mL/mg | 0.044 L/kg |  |  |  |  |
| mithramycin A [MTM] |  |  |  | approximately 1 mg/kg |  |  |  |  |  | 24.68 mL/min/kg | 1202 kg·ng·h/mL/mg | 1.534 L/kg | ~ 5 |
